Test [1] concerns the target Plasma renin activity (Macaca fascicularis, UniProt Q6DLS0). The test is described as follows: Renin inhibition in vivo (plasma renin activity after oral administration to hyperrenin monkeys). Conditions: 15 mg/kg orally; for Renin inhibition potency, 4 h: 4 h after administration. Here is the method: Crab-eating monkeys (Cynomolgus monkeys) (2.8-5.0 kg) were fed on low sodium diet (Na 7.15 mg/100 g feed) for six days, during which the monkeys intramuscularly received furosemide (2 mg/kg body weight) every other day from the second day of the experiment, in order to make the monkeys hyperrenin condition.
After seven days from the low sodium feeding, the monkeys were restrained on a monkey chair. Compounds to be tested are dissolved in 0.1 M citric acid/physiological saline or suspended in water with addition of β-cyclodextrin, and orally administered to the monkeys using a stomach probe (15 mg/kg body weight). […] For the blood collection, an injection syringe containing 30 μl of 6% aqueous EDTA·2Na solution was used. The collected blood was transferred into a test tube and centrifuged (3000 rpm, 10 minutes) at 4° C., and the resultant supernatant was used to determine the renin content. Plasma renin activity (AI(ng)/ml/h value) was measured using Radioimmunoassy kit commercially available from Dinabott Co. in the same manner as in the foregoing in vitro test. Renin inhibition potencies of the compounds tested, which were expressed as a percentage of renin activity relative to the activity before the administration, are listed in Table 12.

Sequences of proteins named here, by UniProt entry; tags and fusion partners are left off. Residues count along the entry.
UniProt Q6DLS0, 67-406 limits assumed: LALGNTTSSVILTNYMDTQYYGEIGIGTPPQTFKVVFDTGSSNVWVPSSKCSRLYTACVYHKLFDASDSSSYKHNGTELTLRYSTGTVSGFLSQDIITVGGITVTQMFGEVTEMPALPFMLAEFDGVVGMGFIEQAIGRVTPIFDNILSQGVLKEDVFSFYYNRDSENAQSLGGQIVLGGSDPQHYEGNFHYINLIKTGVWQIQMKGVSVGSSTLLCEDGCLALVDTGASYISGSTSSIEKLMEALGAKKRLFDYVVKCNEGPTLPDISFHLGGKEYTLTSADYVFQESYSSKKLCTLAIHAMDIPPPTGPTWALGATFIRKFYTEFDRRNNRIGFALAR
UniProt P00797, 67-406 limits assumed: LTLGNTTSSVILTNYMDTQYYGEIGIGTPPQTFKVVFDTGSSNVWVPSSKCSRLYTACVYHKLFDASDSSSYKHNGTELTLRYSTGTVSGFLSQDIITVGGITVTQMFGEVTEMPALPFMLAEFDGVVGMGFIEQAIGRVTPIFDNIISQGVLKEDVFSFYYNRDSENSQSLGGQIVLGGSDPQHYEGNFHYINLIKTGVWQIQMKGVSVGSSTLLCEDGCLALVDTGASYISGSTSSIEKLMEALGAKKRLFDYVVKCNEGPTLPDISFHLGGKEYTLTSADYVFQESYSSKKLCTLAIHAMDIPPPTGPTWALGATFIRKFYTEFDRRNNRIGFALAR

Test [2] has as its target intrinsic renin contained in the renatured human plasma (Homo sapiens, UniProt P00797). The test is described as follows: Renin inhibition in vitro (angiotensin I production in renatured human plasma, RIA). On the procedure: Commercially available lyophilized human plasma (Ortho, Bi-Level Plasma Renin Control) was renatured by dissolving in water. Angiotensinogen was allowed to react with intrinsic renin contained in the renatured plasma to generate angiotensin I (AI), which was quantitatively measured with radioimmunoassay (RIA). Thus, potency of the plasma renin was determined on the basis of the AI production. For this purpose, Renin RIA kit (RENIN' RIABEAD®) manufacture by Dinabott was used. All of the reagents necessary for the measurement of the AI production were available from the attachment of the kit, and the measurement was conducted according to the manufacturer's direction.
To the plasma (0.2 ml) were added all of the reagents, and the mixture was combined with either of sample solutions (0.002 ml) of various concentrations which had been prepared by dissolving a test compound in different amount of ethanol. Ethanol (0.002 ml) containing no test compound was used as a control solution. The amount of AI produced was measured after 60 minutes incubation. Renin inhibition potency of test compound was determined by comparing the amount of AI produced by a sample solution with that produced by a control solution.

[3] abbreviates: furosemide not administered, tested form: 1/2H2O, 1/4iPr2O.
The mark [4] stands for this setting: read-out: IC50 (concentration which inhibits renin activity by 50%), 60 minutes incubation.
The mark [5] stands for this setting: read-out: IC50 (concentration which inhibits renin activity by 50%), 60 minutes incubation, tested form: 3/4H2O.
Setting [6] is: read-out: IC50 (concentration which inhibits renin activity by 50%), 60 minutes incubation, tested form: 1/2H2O.

This is an account of results in patent US5272268A, “Dipeptide derivatives” (Shionogi & Co., Ltd., priority 1990, dated 1993).

Molecules are shown by their SMILES. Like-named read-outs stand apart in the source and are kept apart here.

`CC(C)(C)S(=O)(=O)C[C@@H](Cc1ccccc1)C(=O)N[C@@H](Cc1c[nH]cn1)C(=O)N[C@@H](CC1CCCCC1)[C@@H](O)CC(=O)c1ccccc1`: in test [1] (setting [3]), the “Renin inhibition potency, 4 h” value was 49%; the “Renin inhibition potency, Max” value worked out at 49%; the “Renin inhibition potency, Mean” value was determined as 46%. For the same compound, the IC50 in test [2] (read-out: IC50 (concentration which inhibits renin activity by 50%), 60 minutes incubation, tested form: 1/2H2O, 1/4iPr2O) turned out to be 5.87 nM.

Take `Cn1ccc(C(=O)C[C@H](O)[C@H](CC2CCCCC2)NC(=O)[C@H](Cc2cscn2)NC(=O)[C@H](Cc2ccccc2)CS(=O)(=O)C(C)(C)C)c1`: in test [2] (setting [4]), the IC50 amounted to 3.31 nM. On to `Cc1nc(C[C@H](NC(=O)[C@H](Cc2ccccc2)NS(=O)(=O)N2CCOCC2)C(=O)N[C@@H](CC2CCCCC2)[C@@H](O)CC(=O)c2ccncc2)cs1`, for which the IC50 in test [2] (setting [4]) was 6.72 nM. `CC(C)(C)S(=O)(=O)C[C@@H](Cc1ccccc1)C(=O)N[C@@H](Cc1cscn1)C(=O)N[C@@H](CC1CCCCC1)[C@@H](O)CC(=O)C1CCCCC1`: in test [1] (low sodium diet + furosemide), the “Renin inhibition potency, Max” value was 83%; the “Renin inhibition potency, Mean” value came out at 71%; the “Renin inhibition potency, 4 h” value was found to be 69%. In test [2] (setting [4]), the IC50 was found to be 1.32 nM. With `COc1cccc(C(=O)C[C@H](O)[C@H](CC2CCCCC2)NC(=O)[C@H](Cc2c[nH]cn2)NC(=O)[C@H](Cc2ccccc2)CS(=O)(=O)C(C)(C)C)c1`, in test [2] (read-out: IC50 (concentration which inhibits renin activity by 50%), 60 minutes incubation, tested form: 1.5H2O), the IC50 worked out at 3.21 nM. For `CC(C)(C)S(=O)(=O)C[C@@H](Cc1ccccc1)C(=O)N[C@@H](Cc1c[nH]cn1)C(=O)N[C@@H](CC1CCCCC1)[C@@H](O)CC(=O)c1cccc(C#N)c1`, the IC50 in test [2] (read-out: IC50 (concentration which inhibits renin activity by 50%), 60 minutes incubation, tested form: H2O, 1/4CH2Cl2) worked out at 12.6 nM. `CC(C)(C)S(=O)(=O)C[C@@H](Cc1ccccc1)C(=O)N[C@@H](Cc1cscn1)C(=O)N[C@@H](CC1CCCCC1)[C@@H](O)CC(=O)c1ccccc1`: in test [2] (setting [4]), the IC50 came to 2.07 nM. In the case of `CC(C)(C)S(=O)(=O)C[C@@H](Cc1ccccc1)C(=O)N[C@@H](Cc1c[nH]cn1)C(=O)N[C@@H](CC1CCCCC1)[C@@H](O)CC(=O)c1ccc(F)cc1`, the IC50 in test [2] (setting [5]) was found to be 9.1 nM. On to `O=C(C[C@H](O)[C@H](CC1CCCCC1)NC(=O)[C@H](Cc1cscn1)NC(=O)[C@H](Cc1ccccc1)NS(=O)(=O)N1CCOCC1)C1CCCCC1`, for which the IC50 in test [2] (setting [4]) amounted to 0.31 nM. Take `CC(C)(C)S(=O)(=O)C[C@@H](Cc1ccccc1)C(=O)N[C@@H](Cc1cscn1)C(=O)N[C@@H](CC1CCCCC1)[C@@H](O)CC(=O)c1cccc(OCCN2CCOCC2)c1`: in test [1] (low sodium diet + furosemide), the “Renin inhibition potency, Max” value was determined as 81%; the “Renin inhibition potency, Mean” value was found to be 65%; the “Renin inhibition potency, 4 h” value stood at 81%. Moreover, the “Renin inhibition potency, 6 h” value in test [1] (low sodium diet + furosemide, 6 h after administration) worked out at 73%. In addition, the “Renin inhibition potency, 8 h” value in test [1] (low sodium diet + furosemide, 8 h after administration) came out at 64%. Besides, the “Renin inhibition potency, 24 h” value in test [1] (low sodium diet + furosemide, 24 h after administration) was 28%. In test [2] (setting [4]), the IC50 was found to be 1.78 nM. On to `CC(C)(C)S(=O)(=O)C[C@@H](Cc1ccccc1)C(=O)N[C@@H](Cc1c[nH]cn1)C(=O)N[C@@H](CC1CCCCC1)[C@@H](O)CC(=O)c1nccs1`, for which the IC50 in test [2] (read-out: IC50 (concentration which inhibits renin activity by 50%), 60 minutes incubation, tested form: 2H2O, 1/2C4H8O2) amounted to 12 nM. Regarding `Cc1ccc(C(=O)C[C@H](O)[C@H](CC2CCCCC2)NC(=O)[C@H](Cc2c[nH]cn2)NC(=O)[C@H](Cc2ccccc2)CS(=O)(=O)C(C)(C)C)cc1`, the IC50 in test [2] (setting [5]) amounted to 29 nM. For the compound `O=C(C[C@H](O)[C@H](CC1CCCCC1)NC(=O)[C@H](Cc1cscn1)NC(=O)[C@H](Cc1cccc2ccccc12)NS(=O)(=O)N1CCOCC1)CN1CCCCC1`, the IC50 in test [2] (setting [4]) worked out at 11.6 nM. Regarding `O=C(N[C@@H](CC1CCCCC1)[C@@H](O)CNS(=O)(=O)CCN1CCOCC1)[C@H](Cc1cscn1)NC(=O)[C@H](Cc1ccccc1)NS(=O)(=O)N1CCOCC1`, in test [2] (read-out: IC50 (concentration which inhibits renin activity by 50%), 60 minutes incubation, tested form: 0.75H2O), the IC50 is 0.7 nM. `O=C(C[C@H](O)[C@H](CC1CCCCC1)NC(=O)[C@H](Cc1cscn1)NC(=O)[C@H](Cc1cccc2ccccc12)NS(=O)(=O)N1CCOCC1)CN1CCOCC1`: the IC50 in test [2] (setting [4]) was 1.07 nM.

With `CC(C)(C)S(=O)(=O)C[C@@H](Cc1ccccc1)C(=O)N[C@@H](Cc1c[nH]cn1)C(=O)N[C@@H](CC1CCCCC1)[C@@H](O)CC(=O)c1ccc2c(c1)OCO2`, in test [2] (read-out: IC50 (concentration which inhibits renin activity by 50%), 60 minutes incubation, tested form: 2H2O, 2/5 dioxane), the IC50 is 7.36 nM. Consider `CC(C)(C)S(=O)(=O)C[C@@H](Cc1ccccc1)C(=O)N[C@@H](Cc1c[nH]cn1)C(=O)N[C@@H](CC1CCCCC1)[C@@H](O)CC(=O)c1ccc(F)cc1F`, for which the IC50 in test [2] (setting [6]) was determined as 4.22 nM. As for `CC(C)(C)S(=O)(=O)C[C@@H](Cc1ccccc1)C(=O)N[C@@H](Cc1c[nH]cn1)C(=O)N[C@@H](CC1CCCCC1)[C@@H](O)CC(=O)c1c(F)cccc1F`, the IC50 in test [2] (read-out: IC50 (concentration which inhibits renin activity by 50%), 60 minutes incubation, tested form: 2/3H2O) turned out to be 4.56 nM.

With `NC(=O)C[C@H](NC(=O)[C@H](Cc1cccc2ccccc12)NS(=O)(=O)N1CCOCC1)C(=O)N[C@@H](CC1CCCCC1)[C@@H](O)CC(=O)c1ccncc1`, in test [2] (setting [4]), the IC50 was determined as 9.53 nM. As to `CC(C)(C)S(=O)(=O)C[C@@H](Cc1ccccc1)C(=O)N[C@@H](Cc1c[nH]cn1)C(=O)N[C@@H](CC1CCCCC1)[C@@H](O)CC(=O)c1ccc(C(F)(F)F)cc1`, the IC50 in test [2] (setting [6]) is 259 nM. On to `CC(C)(C)S(=O)(=O)C[C@@H](Cc1ccccc1)C(=O)N[C@@H](Cc1c[nH]cn1)C(=O)N[C@@H](CC1CCCCC1)[C@@H](O)CC(=O)c1ccccc1NS(C)(=O)=O`, for which the IC50 in test [2] (read-out: IC50 (concentration which inhibits renin activity by 50%), 60 minutes incubation, tested form: 1/4(iPr)2O, 1/2H2O) was 71.3 nM.

Regarding `CC(C)(C)S(=O)(=O)C[C@@H](Cc1ccccc1)C(=O)N[C@@H](Cc1c[nH]cn1)C(=O)N[C@@H](CC1CCCCC1)[C@@H](O)CC(=O)c1cccc(C(=O)N2CCOCC2)c1`, the IC50 in test [2] (read-out: IC50 (concentration which inhibits renin activity by 50%), 60 minutes incubation, tested form: 5/4H2O) was determined as 3.75 nM.

On to `CC(C)(C)S(=O)(=O)C[C@@H](Cc1ccccc1)C(=O)N[C@@H](Cc1c[nH]cn1)C(=O)N[C@@H](CC1CCCCC1)[C@@H](O)CC(=O)c1cccc(F)c1`, for which the IC50 in test [2] (setting [5]) is 10.9 nM. In the case of `COc1ccccc1C(=O)C[C@H](O)[C@H](CC1CCCCC1)NC(=O)[C@H](Cc1c[nH]cn1)NC(=O)[C@H](Cc1ccccc1)CS(=O)(=O)C(C)(C)C`, in test [2] (setting [5]), the IC50 is 53.9 nM.

`CC(C)(C)S(=O)(=O)C[C@@H](Cc1ccccc1)C(=O)N[C@@H](Cc1c[nH]cn1)C(=O)N[C@@H](CC1CCCCC1)[C@@H](O)CC(=O)c1ccccc1F`: in test [2] (setting [5]), the IC50 came out at 4.44 nM. With `O=C(CN1CCOCC1)N[C@@H](Cc1cccc2ccccc12)C(=O)N[C@@H](Cc1cscn1)C(=O)N[C@@H](CC1CCCCC1)[C@@H](O)CC(=O)C1CCCCC1`, in test [2] (setting [6]), the IC50 was found to be 1.69 nM.

As to `CC(C)(C)S(=O)(=O)C[C@@H](Cc1ccccc1)C(=O)N[C@@H](Cc1c[nH]cn1)C(=O)N[C@@H](CC1CCCCC1)[C@@H](O)CC(=O)c1ccccc1Cl`, the IC50 in test [2] (read-out: IC50 (concentration which inhibits renin activity by 50%), 60 minutes incubation, tested form: 0.1CH2Cl2, 1/3H2O) was 9.3 nM. In the case of `O=C(CN1CCOCC1)N[C@@H](Cc1cccc2ccccc12)C(=O)N[C@@H](Cc1cscn1)C(=O)N[C@@H](CC1CCCCC1)[C@@H](O)CNS(=O)(=O)c1cccnc1`, the IC50 in test [2] (read-out: IC50 (concentration which inhibits renin activity by 50%), 60 minutes incubation, tested form: 0.5H2O, 0.25CH2Cl2) turned out to be 0.41 nM. For `CC(C)(C)S(=O)(=O)C[C@@H](Cc1ccccc1)C(=O)N[C@@H](Cc1cscn1)C(=O)N[C@@H](CC1CCCCC1)[C@@H](O)CC(=O)c1ccsc1`, the IC50 in test [2] (setting [4]) was 3.17 nM. Take `CC(C)(C)S(=O)(=O)C[C@@H](Cc1ccccc1)C(=O)N[C@@H](Cc1c[nH]cn1)C(=O)N[C@@H](CC1CCCCC1)[C@@H](O)CC(=O)c1cccc(OC(=O)N2CCOCC2)c1`: in test [2] (read-out: IC50 (concentration which inhibits renin activity by 50%), 60 minutes incubation, tested form: 1 3/4H2O), the IC50 amounted to 22.8 nM. For `CN(C)S(=O)(=O)N[C@@H](Cc1ccccc1)C(=O)N[C@@H](Cc1cscn1)C(=O)N[C@@H](CC1CCCCC1)[C@@H](O)CC(=O)c1ccncc1`, in test [2] (setting [4]), the IC50 worked out at 3.16 nM.
